Values quoted from earlier work in US20240118265A1, “MATERIALS AND METHODS TO IMPROVE IN VITRO TOXICITY PREDICTIONS” (priority 2022, published 2024).

Legend:
eye = settings: GHS category; cited from earlier work
cultured epithelium = settings: without DM test; cited from earlier work

For Ammonium nitrate, the “in vivo GHS” value (eye) is given as “Cat. 2” and the “Short Time Exposure (STE) prediction versus in vivo” value (cultured epithelium) is given as “false negatives”.

Some compounds may have been tested in ways that are not shown here.
